Measurements published in PMC8367020 (Journal of the American Chemical Society, 2021).

By UniProt entry, the sequences of proteins in these tests, tags left out. Residues count along the entry.
UniProt P80147, 29-500: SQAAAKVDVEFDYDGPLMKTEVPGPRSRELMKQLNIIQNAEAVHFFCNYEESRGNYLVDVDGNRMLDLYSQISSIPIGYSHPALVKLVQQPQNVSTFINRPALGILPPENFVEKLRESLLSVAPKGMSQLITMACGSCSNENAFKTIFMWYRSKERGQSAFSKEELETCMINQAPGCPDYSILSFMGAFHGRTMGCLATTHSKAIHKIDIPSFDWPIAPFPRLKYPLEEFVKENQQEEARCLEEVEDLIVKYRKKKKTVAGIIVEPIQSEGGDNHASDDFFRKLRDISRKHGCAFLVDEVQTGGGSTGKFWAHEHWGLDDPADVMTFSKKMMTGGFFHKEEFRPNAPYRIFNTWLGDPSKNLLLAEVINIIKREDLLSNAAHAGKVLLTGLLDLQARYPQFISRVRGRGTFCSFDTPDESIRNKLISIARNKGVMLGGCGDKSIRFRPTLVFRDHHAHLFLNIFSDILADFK

Molecular target: GABA-AT (Sus scrofa, UniProt P80147)
Assay: Reversible inhibition of GABA-AT
Format: biochemical

- inhibitory activity toward GABA-AT weaker than that of 4 (Ki relative to cyclopentane 4): about 10 times
- Ki (Ki, GABA-AT reversible inhibition, Ki = IC50/(1+[S]/Km)): 1100 ± 100 µM
SMILES: N[C@H]1C=C(C(=O)O)CC1(F)F [Compound 6, (S)-3-amino-4,4-difluorocyclopent-1-enecarboxylic acid]
